Earlier results, collected in PMC3684770, “S[+] Apomorphine is a CNS penetrating activator of the Nrf2-ARE pathway with activity in mouse and patient fibroblast models of amyotrophic lateral sclerosis^” (Free Radical Biology & Medicine, 2013).

Conditions: human, in vivo; cited from earlier work

For `Nc1nc2ccc(OC(F)(F)F)cc2s1` [riluzole], the “prolongation of average survival” value is listed as “approximately 3 months”.
